We go through 18 compounds from PubChem BioAssay AID709 (SRMLSC, 2007).

The list shows a part of the results, in another mix than the full data. The source made the active and inactive calls.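 How the source made its calls: active means at 10 µM, mean starting fluorescence two-fold or more over control wells; inactive means the rest.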

This experiment in a line: intrinsic fluorescence of library compounds, ex339/em460 – biochemical, MLSMR library, data from DPM-DC assay, artefact control, profiling panel (AID 709).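 Further: signal is the first read of a kinetic run.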 As to conditions: compound autofluorescence, ex339/em460 nm, NADH buffer; at 10 µM; stronger effect = higher value; 1 = no-compound wells, NADH background.
In the case of `COc1ccccc1OP(C)(=O)Nc1ccc(C)c(C)c1` (stereo not drawn), the fluorescence fold increase was inactive: 1.06.
The result for `Cc1nc2ccc3ccccc3c2o1.O=[N+]([O-])c1cc([N+](=O)[O-])c(O)c([N+](=O)[O-])c1` reads inactive: 1.14.
The result for `CP(=O)(Nc1ccccn1)Oc1ccccc1` (stereo not drawn) reads inactive: 1.06; that for `CCN(CC)CC(O)COC(=O)C(O)(c1ccccc1)C1CCCCC1` (stereo not drawn), inactive: 1.04; that for `CP(=O)(Oc1ccccc1)N1CCOC1=O` (stereo not drawn), inactive: 1.08.
Regarding `COc1ccccc1OP(C)(=O)Nc1c(C)n(C)n(-c2ccccc2)c1=O` (stereo not drawn), the fluorescence fold increase is inactive: 1.09.
Consider `CN(C)CCOC(=O)C(O)(c1ccccc1)C1CCCCC1` (stereo not drawn), for which the fluorescence fold increase is inactive: 1.03.
The value for `CCOP(C)(=S)SCC(=O)NC(C)(CC)C(=O)O` (stereo not drawn) was inactive: 1.04.
The value for `CP(=O)(Nc1ccc2c(c1)OCCO2)Oc1ccccc1` (stereo not drawn) was inactive: 1.01.
As for `Cc1ccccc1NP(C)(=O)Nc1ccccc1C`, the fluorescence fold increase is inactive: 1.12.
The value for `CP(=O)(Nc1ccccc1F)Oc1ccccc1` (stereo not drawn) was inactive: 1.11; that for `Cc1ccc(C)c(NP(C)(=O)Oc2ccccc2)c1` (stereo not drawn) was inactive: 0.97; that for `Cc1nc2ccc3ccccc3c2s1.O=[N+]([O-])c1cc([N+](=O)[O-])c(O)c([N+](=O)[O-])c1` was inactive: 0.99.
The value for `CP(=S)(Nn1cnnc1)Oc1ccccc1` (stereo not drawn) was inactive: 1.07; that for `CP(=O)(NC(=O)Nc1ccccc1)Oc1ccccc1` (stereo not drawn) was inactive: 1.1; that for `CCOP(C)(=S)SCC(=O)NC(C)C(=O)O` (stereo not drawn) was inactive: 1.06.
The result for `COc1ccccc1OP(C)(=O)Nc1ccc(C)cc1` (stereo not drawn) reads inactive: 1.08; that for `Cc1ccc(NP(C)(=O)Oc2ccccc2)c(C)c1` (stereo not drawn), inactive: 1.11.
